Laboratory results: publication PMC3897123 (MedChemComm, 2013)

The chains behind the UniProt entries cited, without tags or fusion partners.
UniProt P47989, whole entry, species assumed: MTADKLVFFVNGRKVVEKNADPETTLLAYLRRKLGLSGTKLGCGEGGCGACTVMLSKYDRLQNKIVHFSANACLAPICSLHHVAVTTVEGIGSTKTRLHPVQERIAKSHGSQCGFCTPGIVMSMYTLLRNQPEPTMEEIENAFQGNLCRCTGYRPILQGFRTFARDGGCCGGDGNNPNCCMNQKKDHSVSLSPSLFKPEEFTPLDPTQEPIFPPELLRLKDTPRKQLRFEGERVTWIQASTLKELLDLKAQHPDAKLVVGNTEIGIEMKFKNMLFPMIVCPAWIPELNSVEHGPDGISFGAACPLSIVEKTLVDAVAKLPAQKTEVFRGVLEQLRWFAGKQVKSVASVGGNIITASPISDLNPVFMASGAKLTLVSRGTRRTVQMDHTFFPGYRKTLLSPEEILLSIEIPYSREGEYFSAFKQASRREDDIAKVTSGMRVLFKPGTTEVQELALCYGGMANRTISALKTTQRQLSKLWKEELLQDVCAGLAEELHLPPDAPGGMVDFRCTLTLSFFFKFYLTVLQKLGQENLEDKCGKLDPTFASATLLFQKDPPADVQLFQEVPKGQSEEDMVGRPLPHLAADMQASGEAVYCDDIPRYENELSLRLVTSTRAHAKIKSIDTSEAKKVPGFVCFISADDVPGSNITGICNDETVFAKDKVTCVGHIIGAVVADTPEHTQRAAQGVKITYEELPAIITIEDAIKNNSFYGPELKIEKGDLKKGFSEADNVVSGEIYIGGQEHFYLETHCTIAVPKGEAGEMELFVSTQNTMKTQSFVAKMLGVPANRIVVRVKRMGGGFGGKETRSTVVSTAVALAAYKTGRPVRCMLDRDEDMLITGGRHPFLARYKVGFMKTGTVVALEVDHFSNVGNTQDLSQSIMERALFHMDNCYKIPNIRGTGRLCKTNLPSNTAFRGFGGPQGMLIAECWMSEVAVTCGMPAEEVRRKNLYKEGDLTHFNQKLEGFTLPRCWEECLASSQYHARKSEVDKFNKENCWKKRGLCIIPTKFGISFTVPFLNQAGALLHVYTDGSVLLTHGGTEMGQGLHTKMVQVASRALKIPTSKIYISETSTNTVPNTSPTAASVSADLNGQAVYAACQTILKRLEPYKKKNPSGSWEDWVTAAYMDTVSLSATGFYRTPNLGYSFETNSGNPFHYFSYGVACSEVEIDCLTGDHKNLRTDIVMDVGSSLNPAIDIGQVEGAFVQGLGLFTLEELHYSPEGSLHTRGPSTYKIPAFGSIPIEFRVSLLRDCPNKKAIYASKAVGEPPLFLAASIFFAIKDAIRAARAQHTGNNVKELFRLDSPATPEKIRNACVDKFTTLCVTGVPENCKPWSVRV

Biological target: xanthine oxidase (XO) (Homo sapiens, UniProt P47989)
Settings: various concentrations; Amplex Red detection

SMILES: [Cl-].c1ccc2c(c1)[I+]c1ccccc1-2 [DPI, Diphenylene iodonium]
- Effect on ROS levels produced by XO: complete inhibition
